# Data from PubChem BioAssay AID602281 (The Scripps Research Institute Molecular Screening Center, 2012).
# Sequences of proteins named here, by UniProt entry; tags and fusion partners are left off.
# UniProt Q00G26, whole entry, looked up: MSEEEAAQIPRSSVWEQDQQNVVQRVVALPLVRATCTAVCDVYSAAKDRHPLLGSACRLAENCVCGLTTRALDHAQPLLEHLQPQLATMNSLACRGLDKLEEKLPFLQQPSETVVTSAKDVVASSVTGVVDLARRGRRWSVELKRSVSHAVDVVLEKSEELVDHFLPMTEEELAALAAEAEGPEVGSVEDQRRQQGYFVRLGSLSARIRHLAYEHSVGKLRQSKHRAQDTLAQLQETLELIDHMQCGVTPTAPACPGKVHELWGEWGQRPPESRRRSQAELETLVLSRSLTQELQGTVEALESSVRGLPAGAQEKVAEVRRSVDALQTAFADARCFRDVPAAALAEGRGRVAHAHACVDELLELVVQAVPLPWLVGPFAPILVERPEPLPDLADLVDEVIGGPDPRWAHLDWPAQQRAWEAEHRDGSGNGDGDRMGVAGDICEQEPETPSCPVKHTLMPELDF
# UniProt Q8WTS1, whole entry, looked up: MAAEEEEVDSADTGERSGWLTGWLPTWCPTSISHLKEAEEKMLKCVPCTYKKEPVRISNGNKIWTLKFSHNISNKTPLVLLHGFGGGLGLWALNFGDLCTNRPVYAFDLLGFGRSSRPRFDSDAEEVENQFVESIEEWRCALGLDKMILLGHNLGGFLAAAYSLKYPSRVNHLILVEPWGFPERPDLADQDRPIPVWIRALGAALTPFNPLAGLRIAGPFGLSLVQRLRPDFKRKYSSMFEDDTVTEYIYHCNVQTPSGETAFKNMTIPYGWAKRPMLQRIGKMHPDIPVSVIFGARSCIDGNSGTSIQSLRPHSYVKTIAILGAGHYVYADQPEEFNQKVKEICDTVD
# The list shows a part of the results, in another mix than the full data. Calls of active or inactive are those of the source.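 The calls were made as follows: active = inhibition above the mean inhibition across every tested compound plus 3 SD (cut at about 22% in these data); inactive = the rest.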
# Target: Perilipin-5 (Homo sapiens) + 1-acylglycerol-3-phosphate O-acyltransferase ABHD5 (Homo sapiens) (UniProt Q00G26+Q8WTS1)
# Test: ABHD5-PLIN5 interaction inhibitors, primary screen, cell lysate, split luciferase complementation, luminescence (AID 602281);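 also: 0% = DMSO only wells and the 100% control is not disclosed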
# Conditions: Split G. princeps luciferase complementation, 4 h, at 4 µM, stronger effect = higher value
row,Structure (SMILES),inhibition
1,Cc1cc(C)cc(OP(C)(N)=O)c1 (centres undefined),inactive: 1.64%
2,COc1ccccc1OP(C)(=O)Nc1cc(Cl)ccc1C (centres undefined),inactive: 2.99%
3,COc1ccc(OP(C)(=O)Nc2cccc(F)c2)cc1 (centres undefined),inactive: -0.64%
4,COc1ccccc1OP(C)(=O)Nc1ccc(C)cc1 (centres undefined),inactive: 0.63%
5,Cc1ccc(NP(C)(=O)Oc2ccccc2)c(C)c1 (centres undefined),inactive: 1.34%
6,CCOC(=O)c1ccc(NP(C)(=O)Oc2ccccc2)cc1 (centres undefined),inactive: 5.48%
7,O=[N+]([O-])c1ccc2c(c1)C=Nc1ccccc1O2,inactive: 4.87%
8,CC(C)(C)c1ccc(OP(C)(=O)Nc2ccc(SC(F)(F)F)cc2)cc1 (centres undefined),inactive: -9.93%
9,Cc1cccc(C)c1OP(C)(N)=O (centres undefined),inactive: 0.66%
10,O=[N+]([O-])c1cc([N+](=O)[O-])c(Nc2cccnc2)c([N+](=O)[O-])c1,inactive: -7.81%
11,COc1ccccc1-c1ccccn1.O=[N+]([O-])c1cc([N+](=O)[O-])c(O)c([N+](=O)[O-])c1,inactive: 8.15%
12,CCN(CC)CCCOC(=O)C(O)(c1ccccc1)c1ccccc1,inactive: 4.42%
13,CP(=O)(Nc1ccccn1)Oc1ccc(Cl)cc1 (centres undefined),inactive: 1.98%
14,CCOC(=O)c1ccc(NP(C)(=O)Oc2ccc(OC)cc2)cc1 (centres undefined),inactive: 1.58%
15,O=[N+]([O-])c1cc([N+](=O)[O-])c(O)c([N+](=O)[O-])c1.c1ccc(Oc2ccncc2)cc1,inactive: 8.49%
16,CCOP(C)(=S)SCC(=O)NC(C)C(=O)O (centres undefined),inactive: 1.75%
17,CCc1ccc(OP(C)(=O)N2CCN(c3ccc([N+](=O)[O-])cc3)CC2)cc1 (centres undefined),inactive: 6.78%
18,CP(=O)(NC(=O)Nc1ccccc1)Oc1ccccc1 (centres undefined),inactive: -6.27%
19,Cc1cc(C)cc(OP(C)(=O)Nc2ccc(SC(F)(F)F)cc2)c1 (centres undefined),inactive: 4.28%
20,Cc1ccc(Nc2c([N+](=O)[O-])cc([N+](=O)[O-])cc2[N+](=O)[O-])cc1,inactive: -10.5%
21,Cc1cccc(C)c1OP(C)(=O)Nc1ccc(SC(F)(F)F)cc1 (centres undefined),inactive: -8.23%
22,CP(=O)(Nc1ccc(SC(F)(F)F)cc1)Oc1ccc(Cl)cc1 (centres undefined),inactive: -2.43%
23,CP(=O)(Oc1ccccc1)OC(c1ccccc1)C(F)(F)F (centres undefined),inactive: -2.15%
24,CP(=O)(Nc1ccccc1Br)Oc1ccccc1 (centres undefined),inactive: -0.95%
25,COc1ccccc1OP(C)(=O)Nc1ccccc1 (centres undefined),inactive: -1.63%

row,Structure (SMILES),inhibition
1,CP(=S)(Nn1cnnc1)Oc1ccccc1 (centres undefined),inactive: 8.33%
2,COc1ccc(-c2ccccn2)cc1.O=[N+]([O-])c1cc([N+](=O)[O-])c(O)c([N+](=O)[O-])c1,inactive: 4.5%
3,CP(=O)(Nc1ccc(SC(F)(F)F)cc1)Oc1ccccc1 (centres undefined),inactive: 2.05%
4,CCCOc1ccc(NP(C)(=O)Oc2ccc(Cl)cc2)cc1 (centres undefined),inactive: 0.65%
5,COc1ccccc1OP(C)(=O)Nc1c(C)cccc1C (centres undefined),inactive: -2.6%
6,CN1CCCCC1COC(=O)C1(O)c2ccccc2CCc2ccccc21 (centres undefined),inactive: 13.2%
7,O=[N+]([O-])c1cc([N+](=O)[O-])c(Nc2nnnn2CCO)c([N+](=O)[O-])c1,inactive: 11.1%
8,CC1=C2N=C(C=C3N=C(C(C)=C4[N-][C@@](C)([C@@H]5N=C1[C@](C)(CCC(=O)NC[C@@H](C)OP(=O)([O-])O[C@H]1[C@@H](O)[C@@H](n6cnc7cc(C)c(C)cc76)O[C@@H]1CO)[C@H]5CC(N)=O)[C@@](C)(CC(N)=O)[C@@H]4CCC(N)=O)[C@@](C)(CC(N)=O)[C@@H]3CCC(N)=O)C(C)(C)[C@@H]2CCC(N)=O.[C-]#N.[Co+3],inactive: -7.77%
9,CCOC(=O)C(CC)C1=NC(C)(C)Cc2ccccc21.O=[N+]([O-])c1cc([N+](=O)[O-])c(O)c([N+](=O)[O-])c1 (centres undefined),inactive: -5.16%
10,Cc1nc2ccc3ccccc3c2s1.O=[N+]([O-])c1cc([N+](=O)[O-])c(O)c([N+](=O)[O-])c1,inactive: 6.6%
11,O=[N+]([O-])c1cc([N+](=O)[O-])c(-c2cnn(-c3ccccc3)c2)c([N+](=O)[O-])c1,inactive: -4.02%
12,CN(Cc1cccnc1)C(=O)COc1ccc(Cl)c(Cl)c1.O=[N+]([O-])c1cc([N+](=O)[O-])c(O)c([N+](=O)[O-])c1,inactive: 15.3%
13,O=[N+]([O-])c1cc([N+](=O)[O-])c(-n2nnc3ccccc32)c([N+](=O)[O-])c1,inactive: 0.17%
14,Cc1ccc(C)c(NP(C)(=O)Oc2ccccc2)c1 (centres undefined),inactive: 3.31%
15,CP(=O)(Nc1cccc(Br)c1)Oc1ccccc1 (centres undefined),inactive: -2.75%
16,Cc1cc(C)cc(OP(C)(=O)Nc2ccccn2)c1 (centres undefined),inactive: -1.02%
17,CCOC(=O)c1ccc(NP(C)(=O)Oc2cc(C)cc(C)c2)cc1 (centres undefined),inactive: -0.47%
18,Cc1cc(C)cc(OP(C)(=O)Nc2ccc(C)cc2C)c1 (centres undefined),inactive: -3.59%
19,COc1ccccc1OP(C)(=O)Nc1cccc(Br)c1 (centres undefined),inactive: -2.89%
20,CC1=NCCc2c1[nH]c1ccccc21.O=[N+]([O-])c1cc([N+](=O)[O-])c(O)c([N+](=O)[O-])c1,inactive: 2.04%
21,O=C(O)c1cccc(Nc2c([N+](=O)[O-])cc([N+](=O)[O-])cc2[N+](=O)[O-])c1,inactive: 11.9%
22,CP(=O)(Nc1ccccc1)Oc1ccc(F)cc1 (centres undefined),inactive: -6.9%
23,CCCCCOc1ccc(NP(C)(=O)Oc2ccc(Cl)cc2Cl)cc1 (centres undefined),inactive: -6.99%
24,O=[N+]([O-])c1cc([N+](=O)[O-])c(OC2CCCCC2O)c([N+](=O)[O-])c1 (centres undefined),inactive: 4.35%
